pIC50: −log10 of the molar value.
Target: CRBN/DDB1 protein (Homo sapiens (Human), UniProt Q96SW2)
Assay: Inhibition of CRBN/DDB1 protein activity, fluorescence resonance energy transfer (FRET) method with FITC-labeled thalidomide analog
Format: binding
Conditions: 5.0 nM CRBN/DDB1, 50.0 nM FITC-labeled thalidomide analog, 25° C., pH 7.0
Excerpt: Experiment 1 Detection of Compounds Inhibition of CRBN/DDB1 Protein Activity (Using a Fluorescence Resonance Energy Transfer (FRET) Method)
Microplate reader (BMG PHERAstar FSX), ECHO (LABCYTE Echo 665), microplate thermostatic oscillator (Hangzhou Ruicheng Instrument Co., Ltd.), disodium hydrogen phosphate (Sigma-Aldrich (Shanghai) Trading Co., Ltd.), sodium dihydrogen phosphate (Sigma-Aldrich (Shanghai) Trading Co., Ltd.), bovine serum albumin (Sigma-Aldrich (Shanghai) Trading Co., Ltd.), Anti-6His-Tb crypate Gold (Cisbio Bioassays Company CISBIO), CRBN/DDB1 protein (HitGen Inc.), 384-well plate (Grenier Bio-one (Shanghai) Co., Ltd.).
The compound powders were dissolved in DMSO and serially diluted using ECHO. The resulting dilutions were individually added to 384-well reaction plates, ensuring that the final concentration of DMSO in the entire reaction system (10.0 μL) was 1.0%. […]
The CRBN/DDB1 protein was diluted to twice the required final concentration (5.0 nM) by addition of 20 mM disodium hydrogen phosphate, 20 mM sodium dihydrogen phosphate, 0.08% bovine serum albumin and a buffer with pH 7.0. […] After the reaction was completed, the fluorescence signal values in the 384-well reaction plates were read using the microplate reader (Ex=337 nm, Em=520/490 nm). […]
The residual activity percentage at each concentration was calculated using the following formula: […]

The chains behind the UniProt entries cited, without tags or fusion partners.
UniProt Q96SW2, whole entry, species assumed: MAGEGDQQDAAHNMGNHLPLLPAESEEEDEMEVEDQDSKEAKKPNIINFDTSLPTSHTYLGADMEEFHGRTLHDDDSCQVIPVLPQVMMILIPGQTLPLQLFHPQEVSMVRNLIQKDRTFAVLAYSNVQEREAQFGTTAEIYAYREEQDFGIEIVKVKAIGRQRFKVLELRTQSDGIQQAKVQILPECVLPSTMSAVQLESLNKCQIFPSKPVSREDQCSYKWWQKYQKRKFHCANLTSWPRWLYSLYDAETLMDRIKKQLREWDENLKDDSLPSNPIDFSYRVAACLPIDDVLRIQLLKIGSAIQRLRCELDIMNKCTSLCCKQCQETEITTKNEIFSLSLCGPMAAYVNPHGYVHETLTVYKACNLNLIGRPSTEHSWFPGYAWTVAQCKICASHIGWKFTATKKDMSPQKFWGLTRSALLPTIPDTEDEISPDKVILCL

Structure (SMILES) | pIC50
CN(C)Cc1[nH]c2ccccc2c1C(=O)N1CC2(CC(=O)NC2=O)C1 [Compound A16] | 5.00 to 6.00
CN(C)C(=O)c1oc2ccccc2c1C(=O)N1CC2(CC(=O)NC2=O)C1 [Compound A20] | > 7.00

From patent US20250163070A1, “SPIRO COMPOUND AND APPLICATION THEREOF” (HITGEN INC., priority 2022, published 2025)
